# Assay results taken from PubChem BioAssay AID2107 (National Center for Advancing Translational Sciences (NCATS), 2009).
# The chains behind the UniProt entries cited, without tags or fusion partners. Where a name states a change or a piece, a line headed by the entry shows the natural chain unless it says otherwise.
# UniProt P06280: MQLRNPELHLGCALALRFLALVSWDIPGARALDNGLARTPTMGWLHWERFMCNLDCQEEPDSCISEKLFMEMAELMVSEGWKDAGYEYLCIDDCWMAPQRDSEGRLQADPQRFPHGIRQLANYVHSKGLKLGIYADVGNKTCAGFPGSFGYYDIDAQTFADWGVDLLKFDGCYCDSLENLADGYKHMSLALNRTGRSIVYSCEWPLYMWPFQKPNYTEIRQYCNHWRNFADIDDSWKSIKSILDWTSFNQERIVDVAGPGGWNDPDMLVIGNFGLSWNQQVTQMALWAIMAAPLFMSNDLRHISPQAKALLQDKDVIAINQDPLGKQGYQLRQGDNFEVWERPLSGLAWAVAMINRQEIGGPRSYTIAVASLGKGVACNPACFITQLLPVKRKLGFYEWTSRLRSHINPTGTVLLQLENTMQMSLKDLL
# “And” between values parts separate entries of the source, which are not always exact repeats. Equal entries are not always repeated. Only a part is listed here, and it is no random draw. The source made the active and inactive calls. The call rests on the fitted dose curve; in most records, active means well fitted inhibition curve with a large enough effect; inconclusive means small, poorly fitted or top-dose-only effect, or effect the other way; inactive means flat fitted curve, though single readings scatter.
# Biological target: Alpha-galactosidase A (Homo sapiens) (UniProt P06280)
# Assay: qHTS Assay for Inhibitors and Activators of Human alpha-Galactosidase From Spleen Homogenate;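 further: 0% = enzyme with vehicle and -100% = no enzyme basal signal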
# Details: 4MU-alpha-Gal fluorescence, 40 min
# From the text: NIH Chemical Genomics Center [NCGC] NIH Molecular Libraries Probe Production Centers Network [MLPCN] MLPCN Grant: R03 MH084842-01 Assay Submitter (PI): Wei Zheng NCGC Assay Overview: Alpha-galactosidase is a homodimeric glycoprotein that hydrolyzes the terminal alpha-galactosyl moieties from glycolipids and glycoproteins. Deficiency of this enzyme results in Fabry Disease with progressive accumulation of globotriaosylceramide and other glycosphingolipids in vascular endothelial cells that causes renal failure, myocardial infarction and stroke, and premature death in patients. It has been reported that the improper folding and trafficking of alpha-galactosidase resulting from genetic mutations may account for a significant number of Fabry patients. […] We optimized this alpha-galactosidase assay in 1536-well plate format for identification of novel small molecule inhibitors or activators with structures other than the sugar analogs in order to develop new pharmacological chaperones. In particular, this assay is directed towards discovering compounds active in more natural setting, tissue homogenate, that may have been missed by screens of the purified enzyme under more stringent conditions.
# NCGC Assay Protocol Summary: This is a fluorogenic enzyme assay with 4-methylumbelliferyl-alpha-D-galactopyranoside as the substrate and human spleen homogenate containing alpha-galactosidase as the enzyme preparation. Upon hydrolysis of this fluorogenic substrate, the resulting product, 4-methylumbelliferone (which excites at 365 nm and emits at 440 nm) can be detected by a fluorescence plate reader. Data were normalized to the controls for basal activity (without enzyme) and 100% activity (with enzyme). The AC50 values were determined from concentration-response data modeled with the standard Hill equation. Assay buffer: 50 mM citric acid (titrated with potassium phosphate to pH 5.0), 0.01% Tween-20 (pH 5.0 is an optimal condition for this enzyme assay) 1536-well assay protocol for the alpha-galactosidase from human spleen homogenate: (1) Add 2 ul/well spleen homogenate (1 ug) (2) Add 23 nL compounds in DMSO solution. The final titration was 0.5 nM to 58 uM. (3) Add 2 ul of substrate (1 mM final) (4) Incubate at 37C for 40 min (5) Add 2 ul stop solution (1M NaOH and 1M Glycine mixture, pH 10) (6) Detect the assay plate in a ViewLux plate reader (PerkinElmer) with Ex=365 nm and Em=440nm. Keywords: Alpha-galactosidase, Fabry Disease, pharmacological chaperone, chaperone therapy, high throughput screening, alpha- galactosidase inhibitor, MLSMR, MLSCN, NIH Roadmap, qHTS and NCGC
# [1] = at 80 µM (top of the series) unless noted
structure (smiles),measurement,setting,value
c1nnnn1CCn1cnnn1,"activity change, negative = inhibition",[1],inactive: 0.551%
CCC(C)(OOC(C)(C)C)OOC(C)(C)C,"activity change, negative = inhibition",[1],inactive: 5.59%
CC(C)C(=O)NC(Sc1ccccc1)C(Cl)(Cl)Cl (stereo not given),"activity change, negative = inhibition",[1],inactive: -4.35%
O=P(Nc1nccs1)(c1ccccc1)c1ccccc1,"activity change, negative = inhibition",[1],inactive: -0.425%
CC(C)(C)C(=O)NC(Sc1ccccc1)C(Cl)(Cl)Cl (stereo not given),"activity change, negative = inhibition",[1],inactive: 3.05%
CCOc1ccc(C2=NCC(CBr)S2)cc1 (stereo not given),"activity change, negative = inhibition",[1],inactive: -0.929%
O=P1(Nc2nc3ccc(Cl)cc3s2)COc2ccccc2O1 (stereo not given),"activity change, negative = inhibition",[1],inactive: 12.1%
CC(=O)Nc1ccc(Oc2c([N+](=O)[O-])cc([N+](=O)[O-])cc2[N+](=O)[O-])cc1,"activity change, negative = inhibition",[1],inactive: 3.24%
CC(=O)Nc1ccc([As](=O)(O)O)c(O)c1,"activity change, negative = inhibition",[1],inactive: 4.65%
C[C@@H]1C=CCP(=O)(Oc2ccccc2)O1 (stereo not given in full),"activity change, negative = inhibition",[1],inactive: 2.98%
C[C@H]1OP(=O)(Oc2ccccc2)C[C@@H]2O[C@@H]21 (stereo not given in full),"activity change, negative = inhibition",[1],inactive: 0.949%
CCOC(=O)NC(Sc1ccccc1)C(Cl)(Cl)Cl (stereo not given),"activity change, negative = inhibition",[1],inactive: -2.78%
Cc1ccc(NP(=O)(Oc2cccc(C)c2)Oc2cccc(C)c2)nc1,"activity change, negative = inhibition",[1],inactive: 4.06%
c1ccc(-c2nn[nH]n2)c(-c2nn[nH]n2)c1,"activity change, negative = inhibition",[1],inactive: -27.6%
CCNC(=S)/N=C(\N)N[N+](=O)[O-],"activity change, negative = inhibition",[1],inactive: -1.66%
O=C(NC1CCS(=O)(=O)C1)NP(=S)(Oc1ccccc1)Oc1ccccc1 (stereo not given),"activity change, negative = inhibition",[1],inactive: 4.45%
CN(C)C(=O)Oc1noc2ccccc12,"activity change, negative = inhibition",[1],inactive: 10.5%
O=c1c2cc([N+](=O)[O-])ccc2[nH]c2c([N+](=O)[O-])cc([N+](=O)[O-])cc12,"activity change, negative = inhibition",[1],inactive: -4.57%
Cc1ccccc1OP(=O)(Nc1ccccn1)Oc1ccccc1C,"activity change, negative = inhibition",[1],inactive: -3.86%
CCC(=O)N1C2C3N(C(=O)CC)C1C1N(C(=O)CC)C(C(N1C(=O)CC)N3C(=O)CC)N2C(=O)CC,"activity change, negative = inhibition",[1],inactive: 2.06%
CN(C(=O)Cc1ccc(Cl)c(Cl)c1)[C@@H]1CCCC[C@@H]1N1CCCC1,"activity change, negative = inhibition",[1],inactive: -1.53%
Cc1ccc(OP(=O)(Nc2ccccn2)Oc2ccc(C)cc2)cc1,"activity change, negative = inhibition",[1],inactive: -10.5%
CC(=O)NC(SC(=S)N(CC(C)C)CC(C)C)C(Cl)(Cl)Cl (stereo not given),"activity change, negative = inhibition",[1],inactive: -14.8%
COC(=O)c1cc2c(s1)N=C(c1ccccc1)N(C)P2(=O)N1CCOCC1 (stereo not given),"activity change, negative = inhibition",[1],inactive: -0.0736%
Nc1ccccc1[As](=O)(O)c1ccccc1,"activity change, negative = inhibition",[1],inactive: 1.7%
O=C(O)COc1ccc([As](=O)(O)O)cc1[N+](=O)[O-],"activity change, negative = inhibition",[1],inactive: -5.89%
O=P(Nc1nccs1)(c1ccccc1)c1nc2ccccc2s1 (stereo not given),"activity change, negative = inhibition",[1],inactive: 15.5%
O=P(Nc1nccs1)(Oc1ccccc1)Oc1ccccc1,"activity change, negative = inhibition",[1],inactive: 6.67%
CCOP1(=S)c2c(C)nn(CCC#N)c2N=C(c2ccccc2F)N1C (stereo not given),"activity change, negative = inhibition",[1],inactive: -1.36%
CS(=O)(=O)c1cc([N+](=O)[O-])c2no[n+]([O-])c2c1,"activity change, negative = inhibition",[1],inactive: -3.14%
CCOP1(=S)c2c(C)nn(CCC#N)c2N=C(c2ccc(F)cc2)N1C (stereo not given),"activity change, negative = inhibition",[1],inactive: 3%
CN(C(=O)Cc1ccccc1)[C@@H]1CC[C@]2(CCCO2)C[C@H]1N1CCCC1,"activity change, negative = inhibition",[1],inactive: -18.4% and inactive: 26.6%
O=[N+]([O-])c1ccc2c(c1)nnn2O,"activity change, negative = inhibition",[1],inactive: 7.19%
O=[N+]([O-])CC(O)c1ccc([N+](=O)[O-])cc1 (stereo not given),"activity change, negative = inhibition",[1],inactive: -6.31%
NC(=O)Nc1ccc([As](=O)(O)O)cc1,"activity change, negative = inhibition",at 29.1 µM (top of the series),inactive: 1.72%
same,"activity change, negative = inhibition",at 80 µM (top of the series),inactive: 4.11% and inactive: 10.7%
O=[As](O)(c1cccc(O)c1)c1cccc(O)c1,"activity change, negative = inhibition",[1],inactive: -1.3%
Cc1cccc(OCC(=O)OC2CN3CCC2CC3)c1 (stereo not given),"activity change, negative = inhibition",[1],inactive: 9.07%
CN(C(=O)Cc1ccc(Cl)c(Cl)c1)[C@@H]1CC[C@]2(CCCO2)C[C@H]1N1CCCC1,"activity change, negative = inhibition",[1],inactive: 7.83% and inactive: 15.5%
COc1cc(C(=O)NCC2(N3CCOCC3)CCCCC2)cc(Cl)c1OC(C)C,"activity change, negative = inhibition",[1],inactive: -2.28%
O=[As](O)(O)c1cccnc1,"activity change, negative = inhibition",[1],inactive: -8.45%
CCOP(=O)(Nc1cccc2ccccc12)OCC,"activity change, negative = inhibition",[1],inactive: 5.63%
COc1cc(C2NCCC3(OCCO3)C2(C)C)cc(OC)c1OC (stereo not given),"activity change, negative = inhibition",[1],inactive: 3.79%
Nc1cccc2c([As](=O)(O)O)cccc12,"activity change, negative = inhibition",[1],inactive: 4.49%
Cc1ccc(NCCc2c([N+](=O)[O-])cc([N+](=O)[O-])cc2[N+](=O)[O-])cc1,"activity change, negative = inhibition",[1],inactive: 5.39%
CCCOP(=S)(Nc1nc(N)cc(=O)[nH]1)OCCC,"activity change, negative = inhibition",[1],inactive: -4.68%
CC(C)(C)C(=O)NC(Sc1ncccn1)C(Cl)(Cl)Cl (stereo not given),"activity change, negative = inhibition",[1],inactive: -4.4%
Clc1n[nH]nc1-c1nn[nH][15n]1,"activity change, negative = inhibition",[1],inactive: -18.7%
O=P1(Nc2ccccn2)COc2ccccc2OC1,"activity change, negative = inhibition",[1],inactive: 4.76%
CN(CCCl)Cc1cc(Cl)c(NC2=NCCN2)c(Cl)c1,"activity change, negative = inhibition",[1],inactive: -6.82% and inactive: -1.02%
